Laboratory results reported in patent EP2033655B1 (priority 2007, dated 2009).

By UniProt entry, the sequences of proteins in these tests, tags left out. Residues count along the entry.
UniProt P19338, 309-710: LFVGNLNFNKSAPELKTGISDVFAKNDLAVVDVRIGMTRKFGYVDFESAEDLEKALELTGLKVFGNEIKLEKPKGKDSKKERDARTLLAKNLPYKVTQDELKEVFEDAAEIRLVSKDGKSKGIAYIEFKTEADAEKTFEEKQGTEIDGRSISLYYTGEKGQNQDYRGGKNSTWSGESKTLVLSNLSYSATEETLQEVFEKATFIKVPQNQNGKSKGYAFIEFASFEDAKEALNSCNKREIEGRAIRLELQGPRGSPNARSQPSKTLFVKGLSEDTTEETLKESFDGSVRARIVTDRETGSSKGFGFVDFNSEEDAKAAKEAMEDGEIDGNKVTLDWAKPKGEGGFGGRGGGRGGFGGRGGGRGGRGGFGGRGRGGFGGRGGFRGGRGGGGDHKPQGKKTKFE
UniProt P19338, 1-308: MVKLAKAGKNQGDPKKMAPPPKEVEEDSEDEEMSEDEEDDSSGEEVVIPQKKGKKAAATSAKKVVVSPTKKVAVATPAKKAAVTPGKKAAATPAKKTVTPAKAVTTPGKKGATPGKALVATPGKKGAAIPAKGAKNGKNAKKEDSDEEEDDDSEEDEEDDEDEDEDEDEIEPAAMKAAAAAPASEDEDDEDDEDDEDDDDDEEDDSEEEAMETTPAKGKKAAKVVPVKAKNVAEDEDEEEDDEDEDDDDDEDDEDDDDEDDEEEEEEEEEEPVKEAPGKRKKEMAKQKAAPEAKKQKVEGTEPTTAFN
UniProt P19338, whole entry: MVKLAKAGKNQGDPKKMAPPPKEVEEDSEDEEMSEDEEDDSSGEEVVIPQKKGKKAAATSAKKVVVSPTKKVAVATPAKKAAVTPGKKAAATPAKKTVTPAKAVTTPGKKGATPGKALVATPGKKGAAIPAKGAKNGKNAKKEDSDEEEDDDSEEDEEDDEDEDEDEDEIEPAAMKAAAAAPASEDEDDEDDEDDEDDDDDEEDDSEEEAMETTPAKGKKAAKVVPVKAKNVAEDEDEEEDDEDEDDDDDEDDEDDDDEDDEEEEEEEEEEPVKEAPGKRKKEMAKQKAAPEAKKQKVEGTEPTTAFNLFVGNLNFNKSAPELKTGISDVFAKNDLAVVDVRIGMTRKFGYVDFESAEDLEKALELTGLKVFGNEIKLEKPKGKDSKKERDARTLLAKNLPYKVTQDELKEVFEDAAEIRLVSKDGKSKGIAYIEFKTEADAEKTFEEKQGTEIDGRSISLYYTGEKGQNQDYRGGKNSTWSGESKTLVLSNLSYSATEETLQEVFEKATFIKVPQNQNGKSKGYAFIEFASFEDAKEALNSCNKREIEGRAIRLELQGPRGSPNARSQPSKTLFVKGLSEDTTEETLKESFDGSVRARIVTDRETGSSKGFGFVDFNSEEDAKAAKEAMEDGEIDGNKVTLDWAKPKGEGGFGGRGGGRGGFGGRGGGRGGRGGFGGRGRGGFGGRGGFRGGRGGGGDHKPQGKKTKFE

Experiments:
nucleolin = target: T1, nucleolin (Homo sapiens, UniProt P19338); assay type: binding
T1 construct: [35S]Met/Cys-labeled full-length nucleolin, N-terminal and the C-terminal parts containing amino acids 1-707, 1-308, and 309-707, respectively; made in house; host or cells: in vitro transcription/translation, rabbit reticulocyte lysate system

[1] = target: T2, cell-surface expressed nucleolin (Homo sapiens, UniProt P19338); assay: cell-based
T2 construct: endogenous in cells; host or cells: HeLa P4 cells

SMILES | binding of HB-19 to C-terminal part of nucleolin (nucleolin) | binding of HB-19 to N-terminal part of nucleolin (nucleolin) | binding of HB-19 to full-length nucleolin (nucleolin) | pIC50 [1]
CCCC[C@H](NC(=O)[C@H](CCCCNC(=O)[C@H](CCCNC(=N)N)NC(=O)[C@@H]1CCCN1C[C@@H](N)CCCCN)NC(=O)[C@H](CCC(=O)O)NC(=O)[C@H](CCCCNC(=O)[C@H](CCCNC(=N)N)NC(=O)[C@@H]1CCCN1C[C@@H](N)CCCCN)NC(=O)[C@@H]1CCCN1C(=O)CNC(=O)[C@H](CCCCNC(=O)[C@H](CCCNC(=N)N)NC(=O)[C@@H]1CCCN1C[C@@H](N)CCCCN)NC(=O)[C@H](CCCCN)NC(=O)[C@H](CCCCNC(=O)[C@H](CCCNC(=N)N)NC(=O)[C@@H]1CCCN1C[C@@H](N)CCCCN)NC(=O)[C@H](CCCNC(=N)N)NC(=O)[C@@H]1CCCN1C[C@@H](N)CCCCN)C(N)=O [HB-19, 5[Lys (CH2N)Pro-Arg]-template-assembled synthetic peptide] | bound efficiently | did not bind at all | found to bind | –
CC(=O)N[C@@H](CCCCNC(=O)[C@H](CCCNC(=N)N)NC(=O)[C@@H]1CCCN1C[C@@H](N)CCCCN)C(=O)NC(C)(C)C(=O)NCC(=O)N[C@@H](CCCCNC(=O)[C@H](CCCNC(=N)N)NC(=O)[C@@H]1CCCN1C[C@@H](N)CCCCN)C(=O)NC(C)(C)C(=O)NCC(=O)N[C@@H](CCCCNC(=O)[C@H](CCCNC(=N)N)NC(=O)[C@@H]1CCCN1C[C@@H](N)CCCCN)C(=O)NC(C)(C)C(=O)NCC(=O)N[C@@H](CCCCNC(=O)[C@H](CCCNC(=N)N)NC(=O)[C@@H]1CCCN1C[C@@H](N)CCCCN)C(=O)NC(C)(C)C(=O)NCC(=O)N[C@@H](CCCCNC(=O)[C@H](CCCNC(=N)N)NC(=O)[C@@H]1CCCN1C[C@@H](N)CCCCN)C(=O)NC(C)(C)C(=O)NCC(N)=O [Nucant 3] | – | – | – | 6.70 to 7.00
CC(=O)N[C@@H](CCCCNC(=O)[C@H](CCCNC(=N)N)NC(=O)[C@@H]1CCCN1C[C@@H](N)CCCCN)C(=O)NC(C)(C)C(=O)NCC(=O)N[C@@H](CCCCNC(=O)[C@H](CCCNC(=N)N)NC(=O)[C@@H]1CCCN1C[C@@H](N)CCCCN)C(=O)NC(C)(C)C(=O)NCC(=O)N[C@@H](CCCCNC(=O)[C@H](CCCNC(=N)N)NC(=O)[C@@H]1CCCN1C[C@@H](N)CCCCN)C(=O)NC(C)(C)C(=O)NCC(=O)N[C@@H](CCCCNC(=O)[C@H](CCCNC(=N)N)NC(=O)[C@@H]1CCCN1C[C@@H](N)CCCCN)C(=O)NC(C)(C)C(=O)NCC(=O)N[C@@H](CCCCNC(=O)[C@H](CCCNC(=N)N)NC(=O)[C@@H]1CCCN1C[C@@H](N)CCCCN)C(=O)NC(C)(C)C(=O)NCC(=O)N[C@@H](CCCCNC(=O)[C@H](CCCNC(=N)N)NC(=O)[C@@H]1CCCN1C[C@@H](N)CCCCN)C(=O)NC(C)(C)C(=O)NCC(N)=O [Nucant 6] | – | – | – | > 7.00

pIC50: −log10 of the molar value.
